Test results taken from patent US10118965B2, “Compositions and methods related to anti-EGFR antibody drug conjugates” (LegoChem Biosciences, Inc., priority 2015, dated 2018).
pIC50: −log10 of the molar value.

Assays:
HCC-827 cells = experiment: In vitro cytotoxicity, SRB assay, HCC-827 cells; assay type: cell-based; details: HCC-827 (EGFR Intermediate: del E746_A750), 72 hours
Experimental: (§1) A431 cells, which express high levels of EGFR, and MCF-7 cells, which express low levels of EGFR, were plated at about 1000 cells per well in a 96-well plate in 100 μL of media. HCC-827 cells, which express an intermediate level of EGFR were plated at about 500 cells per well in a 96-well plate in 100 μL of media. The cells were incubated at 37° C. in 5% CO2 for 24 hours. […] The cells were incubated for 72 hours and then fixed for 1 hour at 4° C. after adding 100 μL of ice-cold 10% tricholoracetic acid to each well. Viable cells were counted using SRB dye (Sulphorhodamine, Sigma S 1402) and a Molecular Devices SpectraMax 190 plate reader running Softmax Pro v5, monitoring absorbance at 540 nm (FIG. 12).

[1] = Pharmacokinetics in male Sprague Dawley rats (LC/MS/MS); assay type: in vivo; details: rat, intravenously, 3 mg/kg
MCF-7 cells = experiment: In vitro cytotoxicity, SRB assay, MCF-7 cells; assay type: cell-based; details: MCF7 (EGFR low), 72 hours
Experimental: as §1

[2] = recalculated excluding the value measured at day 1

Row | Substance | pIC50 (HCC-827 cells) | Alpha HL [1] [days] | Beta HL [1] [days] | V1 [1] [L/kg] | Beta HL [1, 2] [days] | V1 [1, 2] [L/kg] | pIC50 (MCF-7 cells)
1 | cetuximab [Erbitux] | < 7.00 | 0.19 ± 0.10 | 8.21 ± 0.99 | 0.04019 ± 0.00292 | 7.41 ± 0.51 | 0.04114 ± 0.00181 | –
2 | Erbitux(LC)-G7CVIM | < 7.00 | – | – | – | – | – | < 7.00
